From patent US20170119925 come the findings set out here.

In the series the test system is T1, Gln-Pro-Gln-Gly-Leu-Ala-Lys (QPQGLAK) peptide crosslinker.
T1 sequence: QPQGLAK

In the case of activated human recombinant MMP-13, the kcat/Km (s^-1M^-1), digestion kinetics by HPLC came to 729 s^-1M^-1.
